Source: PubChem BioAssay AID1813 (Broad Institute, 2009)
Only a part is listed here, and it is no random draw. Some salts and complexes are drawn in separate pieces, as the source files them; their charges need not balance. The source made the active and inactive calls. Rule as the data show it: active = inhibition above about 60%; inconclusive = no clear call, values can overlap the other calls; inactive = below that.

Test: 5' untranslated region of α-synuclein, MLPCN primary screen (AID 1813);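 also: H4 neuroglioblastoma cells stably carrying SNCA 5'UTR luciferase fusion; 0% = DMSO wells and 100% = positive control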
Conditions: alpha-synuclein 5'UTR reporter, inhibitor activity; stronger effect = higher value; tested at 7.5 µM

SMILES	inhibition
CCCOc1ccc(NP(C)(=O)Oc2ccc(Cl)cc2)cc1 (configuration not stated)	inactive: -1.97%
CP(=O)(Nc1ccc(SC(F)(F)F)cc1)Oc1ccccc1 (configuration not stated)	inactive: 9.01%
COc1ccccc1OP(C)(=O)Nc1c(C)cccc1C (configuration not stated)	inactive: -1.46%
CN1CCCCC1COC(=O)C1(O)c2ccccc2CCc2ccccc21 (configuration not stated)	inactive: -11.4%
CCOC(=O)C(CC)C1=NC(C)(C)Cc2ccccc21.O=[N+]([O-])c1cc([N+](=O)[O-])c(O)c([N+](=O)[O-])c1 (configuration not stated)	inactive: -11.7%
O=[N+]([O-])c1cc([N+](=O)[O-])c(Nc2nnnn2CCO)c([N+](=O)[O-])c1	inactive: -5.94%
O=[N+]([O-])c1cc([N+](=O)[O-])c(-c2cnn(-c3ccccc3)c2)c([N+](=O)[O-])c1	inactive: 1.94%
O=[N+]([O-])c1cc([N+](=O)[O-])c(-n2nnc3ccccc32)c([N+](=O)[O-])c1	inactive: -8.58%
Cc1ccc(C)c(NP(C)(=O)Oc2ccccc2)c1 (configuration not stated)	inactive: -9.77%
Cc1cc(C)cc(OP(C)(=O)Nc2ccccn2)c1 (configuration not stated)	inactive: 18.8%
CP(=O)(Nc1cccc(Br)c1)Oc1ccccc1 (configuration not stated)	inactive: -3.88%
CCOC(=O)c1ccc(NP(C)(=O)Oc2cc(C)cc(C)c2)cc1 (configuration not stated)	inactive: 12.2%
Cc1cc(C)cc(OP(C)(=O)Nc2ccc(C)cc2C)c1 (configuration not stated)	inactive: 18%
COc1ccccc1OP(C)(=O)Nc1cccc(Br)c1 (configuration not stated)	inactive: 8.92%
CC1=NCCc2c1[nH]c1ccccc21.O=[N+]([O-])c1cc([N+](=O)[O-])c(O)c([N+](=O)[O-])c1	inactive: -71.5%
O=C(O)c1cccc(Nc2c([N+](=O)[O-])cc([N+](=O)[O-])cc2[N+](=O)[O-])c1	inactive: 11.9%
Cc1cc(C)cc(OP(C)(N)=O)c1 (configuration not stated)	inactive: 11.1%
COc1ccc(OP(C)(=O)Nc2cccc(F)c2)cc1 (configuration not stated)	inactive: 6.7%
COc1ccccc1OP(C)(=O)Nc1cc(Cl)ccc1C (configuration not stated)	inactive: 15%
Cc1ccc(NP(C)(=O)Oc2ccccc2)c(C)c1 (configuration not stated)	inactive: 10.5%
COc1ccccc1OP(C)(=O)Nc1ccc(C)cc1 (configuration not stated)	inactive: 3.58%
CCOC(=O)c1ccc(NP(C)(=O)Oc2ccccc2)cc1 (configuration not stated)	inactive: -12.6%

SMILES	inhibition
O=[N+]([O-])c1ccc2c(c1)C=Nc1ccccc1O2	inactive: -25.8%
Cc1cccc(C)c1OP(C)(N)=O (configuration not stated)	inactive: 16.8%
CC(C)(C)c1ccc(OP(C)(=O)Nc2ccc(SC(F)(F)F)cc2)cc1 (configuration not stated)	inactive: 8.03%
O=[N+]([O-])c1cc([N+](=O)[O-])c(Nc2cccnc2)c([N+](=O)[O-])c1	inactive: -3.2%
CCN(CC)CCCOC(=O)C(O)(c1ccccc1)c1ccccc1	inactive: -19%
CP(=O)(Nc1ccccn1)Oc1ccc(Cl)cc1 (configuration not stated)	inactive: 15.9%
CCOC(=O)c1ccc(NP(C)(=O)Oc2ccc(OC)cc2)cc1 (configuration not stated)	inactive: -8.84%
O=[N+]([O-])c1cc([N+](=O)[O-])c(O)c([N+](=O)[O-])c1.c1ccc(Oc2ccncc2)cc1	inactive: 1.62%
CCOP(C)(=S)SCC(=O)NC(C)C(=O)O (configuration not stated)	inactive: 0.155%
Cc1cc(C)cc(OP(C)(=O)Nc2ccc(SC(F)(F)F)cc2)c1 (configuration not stated)	inactive: 13.9%
CP(=O)(NC(=O)Nc1ccccc1)Oc1ccccc1 (configuration not stated)	inactive: -18.9%
CCc1ccc(OP(C)(=O)N2CCN(c3ccc([N+](=O)[O-])cc3)CC2)cc1 (configuration not stated)	active: 89.1%
CP(=O)(Oc1ccccc1)OC(c1ccccc1)C(F)(F)F (configuration not stated)	inactive: 22.5%
Cc1cccc(C)c1OP(C)(=O)Nc1ccc(SC(F)(F)F)cc1 (configuration not stated)	inactive: 15.3%
CP(=O)(Nc1ccc(SC(F)(F)F)cc1)Oc1ccc(Cl)cc1 (configuration not stated)	inactive: 0.412%
CP(=O)(Nc1ccccc1Br)Oc1ccccc1 (configuration not stated)	inactive: 13.4%
COc1ccccc1OP(C)(=O)Nc1ccccc1 (configuration not stated)	inactive: 15.7%
CP(=S)(Nn1cnnc1)Oc1ccccc1 (configuration not stated)	inactive: 10.2%
CCOC(=O)c1ccc(NP(C)(=O)Oc2ccc(Cl)cc2)cc1 (configuration not stated)	inactive: 11.7%
CP(=O)(OC12CC3CC(CC(C3)C1)C2)OC12CC3CC(CC(C3)C1)C2	inactive: 22.5%
Nc1ccc2c(ccc3cccnc32)n1.O=[N+]([O-])c1cc([N+](=O)[O-])c(O)c([N+](=O)[O-])c1	inactive: -23.9%
CN(C)C(=O)c1c([N+](=O)[O-])cc([N+](=O)[O-])cc1[N+](=O)[O-]	inactive: -44.7%

SMILES	inhibition
COc1ccccc1OP(C)(=O)Nc1ccccc1Br (configuration not stated)	inactive: 4.55%
CC(C)(C)c1ccc(OP(C)(=O)O)cc1	inactive: 11.4%
CP(=O)(Nc1ccc(Cl)cc1)Oc1ccc(F)cc1 (configuration not stated)	inactive: 10.3%
O=C(OCCCN1CCCC1)C(O)(c1ccccc1)C1CCCCC1 (configuration not stated)	inactive: -16.5%
COc1ccccc1OP(C)(=O)Nc1c(C)n(C)n(-c2ccccc2)c1=O (configuration not stated)	inactive: 11.2%
CCc1ccc(OP(C)(=O)Nc2cccnc2)cc1 (configuration not stated)	inactive: -9.72%
CP(=O)(Oc1ccccc1)N1CCOC1=O (configuration not stated)	inactive: 16.8%
COc1ccc(OP(C)(=O)Nc2ccc(Br)cc2)cc1 (configuration not stated)	inactive: 13.1%
CCN(CC)CC(O)COC(=O)C(O)(c1ccccc1)C1CCCCC1 (configuration not stated)	inactive: -12.1%
COc1ccccc1OP(C)(=O)Nc1ccc(C)cc1C (configuration not stated)	inactive: 22.6%
CP(=O)(Nc1ccccn1)Oc1ccccc1 (configuration not stated)	inactive: 4.77%
CCc1ccc(OP(C)(=O)O)cc1	inactive: -4.76%
Cc1c(NP(C)(=O)Oc2ccc(C(C)C)cc2)c(=O)n(-c2ccccc2)n1C (configuration not stated)	inactive: 0.526%
COc1ccc(OP(C)(=O)Nc2ccccn2)cc1 (configuration not stated)	inactive: 26.1%
CN(C)CCOC(=O)C(O)(c1ccccc1)C1CCCC1 (configuration not stated)	inactive: -13.7%
COc1ccccc1OP(C)(=O)Nc1ccc(Br)cc1 (configuration not stated)	inactive: 5.85%
CP(=O)(Nc1ccc(Cl)cc1Cl)Oc1ccccc1 (configuration not stated)	inactive: 11.7%
CP(=O)(OCCOc1ccccc1)OCCOc1ccccc1	inactive: -12.9%
Cc1nc2ccc3ccccc3c2o1.O=[N+]([O-])c1cc([N+](=O)[O-])c(O)c([N+](=O)[O-])c1	inactive: -99.6%
COc1ccccc1OP(C)(=O)Nc1ccc(C)c(C)c1 (configuration not stated)	inactive: 22.1%
COc1ccc(OP(C)(=O)Nc2ccccc2Br)cc1 (configuration not stated)	inactive: -24.7%
Cc1cc(C)cc(OP(C)(=O)Nc2cccc(C(F)(F)F)c2)c1 (configuration not stated)	inactive: 14%

SMILES	inhibition
CP(=O)(Nc1ccccc1)Oc1ccc(F)cc1 (configuration not stated)	inactive: 6.66%
CCCCCOc1ccc(NP(C)(=O)Oc2ccc(Cl)cc2Cl)cc1 (configuration not stated)	inactive: 33%
O=[N+]([O-])c1cc([N+](=O)[O-])c(OC2CCCCC2O)c([N+](=O)[O-])c1 (configuration not stated)	inactive: 5.46%
CCN(CC)CCCOC(=O)C(O)(c1ccccc1)C1CCCCC1 (configuration not stated)	inactive: 0.354%
CCOC(=O)c1ccc(NP(C)(=O)Oc2ccc(F)cc2)cc1 (configuration not stated)	inactive: -1.62%
COc1ccc(OP(C)(=O)Nc2ccc(SC(F)(F)F)cc2)cc1 (configuration not stated)	inactive: -10.2%
COc1ccc2c(c1O)-c1c(O)c(OC)cc3c1[C@H](C2)[N+](C)(C)CC3.O=[N+]([O-])c1cc([N+](=O)[O-])c([O-])c([N+](=O)[O-])c1[O-]	inactive: -3.32%
O=C(OC1CN2CCC1CC2)c1ccc([N+](=O)[O-])cc1 (configuration not stated)	inactive: 18.4%
O=C(OCCN1CCN(CCOCc2ccccc2)CC1)C(O)(c1ccccc1)c1ccccc1	inactive: -7.44%
CP(=O)(Nc1ccccc1F)Oc1ccccc1 (configuration not stated)	inactive: -7.34%
CC(C)c1ccc(OP(C)(=O)Nc2ccc(SC(F)(F)F)cc2)cc1 (configuration not stated)	inactive: 19.3%
Cc1ccccc1NP(C)(=O)Nc1ccccc1C	inactive: 22%
CP(=O)(Nc1ccc2c(c1)OCCO2)Oc1ccccc1 (configuration not stated)	inactive: -27.1%
CCOP(C)(=S)SCC(=O)NC(C)(CC)C(=O)O (configuration not stated)	inactive: 10.2%
CP(=O)(Nc1ccc(SC(F)(F)F)cc1)Oc1ccc(F)cc1 (configuration not stated)	inactive: -25.5%
O=[N+]([O-])c1ccc(OP2(=O)COCCO2)cc1 (configuration not stated)	inactive: 8.74%
O=[N+]([O-])c1cc([N+](=O)[O-])c(NCC2CCS(=O)(=O)C2)c([N+](=O)[O-])c1 (configuration not stated)	inactive: -34.7%
Cc1cc(-c2cccc3ccccc23)c(C)cn1.O=[N+]([O-])c1cc([N+](=O)[O-])c(O)c([N+](=O)[O-])c1	inactive: 13.1%
CN(C)CCOC(=O)C(O)(c1ccccc1)C1CCCCC1 (configuration not stated)	inactive: 5.02%
COc1ccc(NP(C)(=O)Oc2ccccc2OC)cc1 (configuration not stated)	inactive: -4.24%
COc1ccc(OP(C)(=O)Nc2cccc(Br)c2)cc1 (configuration not stated)	inactive: -10.8%
